Results as given in patent publication US20040072753A1, “Peptides for use in the treatment of alzheimer's disease” (priority 2000, published 2004).

Sequences of proteins named here, by UniProt entry; tags and fusion partners are left off.
UniProt P06493, whole entry: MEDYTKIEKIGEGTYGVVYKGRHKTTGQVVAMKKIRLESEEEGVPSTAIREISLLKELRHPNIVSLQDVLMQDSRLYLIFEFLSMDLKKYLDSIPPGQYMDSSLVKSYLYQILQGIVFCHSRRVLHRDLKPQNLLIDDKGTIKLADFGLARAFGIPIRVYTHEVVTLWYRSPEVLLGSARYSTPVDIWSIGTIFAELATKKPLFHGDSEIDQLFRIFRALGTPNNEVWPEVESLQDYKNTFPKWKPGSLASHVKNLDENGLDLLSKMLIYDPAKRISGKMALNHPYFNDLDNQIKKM

Molecular target: recombinant p34-cdc2/cyclin B1 (Homo sapiens, UniProt P06493)
Assay: Phosphorylation of biotinylated Aβ peptides by recombinant p34-cdc2/cyclin B1 (32P incorporation)

inhibition of phosphorylation of Aβ: inhibited
Substance: Aβ 12-28: Aβ fragment, residues 12-28
